The source of these data is patent US20080226722A1, “Gel Composition Comprising Charged Polymers” (priority 2004, published 2008).

Data set [1] is described as follows: Protein release from gels comprising anionically and cationically charged microparticles (release buffer, 37° C., BCA Protein Assay). To be noted: for time to reach a release of 50% of protein: HEPES pH 7 isotonised with NaCl, 37° C. The format is physicochemical. How it is done: To each of the gels prepared according to example 5, 1.5 mL release buffer (HEPES, pH 7, 100 mM, isotonised with NaCl) was added. Subsequently, the cups were incubated at 37° C. Samples of 1.0 mL were taken at various intervals and replaced by 1.0 mL fresh buffer. The protein concentration in the samples was measured […] using the BCA Protein Assay.
Gels loaded with IgG were prepared in analogy to example 5 and tested in analogy to example 6, except that IgG was used as a model protein instead of lysozyme and BSA.

Data set [2] in a line: Incorporation of protein into charged microparticles. The format is physicochemical. To be noted: neutral or physiological pH.

In the case of bovine serum albumin [BSA], the “time to reach a release of 50% of protein” value in data set [1] (12.5%-gel (solid content about 12.5%)) is on record as “about 30 h”. Also, the “time to reach a release of 50% of protein” value in data set [1] (25.5%-gel (so in the source)) was “about 100 h”. The “release rate compared with the other model proteins” value in data set [1] (gels of oppositely charged microparticles) was “released more slowly than lysozyme”. Also, in data set [2], the “incorporation into negatively charged microparticles” value was “The opposite is true” and the “incorporation into positively charged microparticles” value is given as “The opposite is true”.
